The results in this text go back to ChEMBL document CHEMBL2384966, “Probes for narcotic receptor mediated phenomena. 47. Novel C4a- and N-substituted-1,2,3,4,4a,9a-hexahydrobenzofuro[2,3-c]pyridin-6-ols” (Bioorg Med Chem, 2013).

Amino acid sequences for entries named in this document (tags omitted). A change or cut given only in a name is not applied to a line headed by its entry.
UniProt P35372, whole entry: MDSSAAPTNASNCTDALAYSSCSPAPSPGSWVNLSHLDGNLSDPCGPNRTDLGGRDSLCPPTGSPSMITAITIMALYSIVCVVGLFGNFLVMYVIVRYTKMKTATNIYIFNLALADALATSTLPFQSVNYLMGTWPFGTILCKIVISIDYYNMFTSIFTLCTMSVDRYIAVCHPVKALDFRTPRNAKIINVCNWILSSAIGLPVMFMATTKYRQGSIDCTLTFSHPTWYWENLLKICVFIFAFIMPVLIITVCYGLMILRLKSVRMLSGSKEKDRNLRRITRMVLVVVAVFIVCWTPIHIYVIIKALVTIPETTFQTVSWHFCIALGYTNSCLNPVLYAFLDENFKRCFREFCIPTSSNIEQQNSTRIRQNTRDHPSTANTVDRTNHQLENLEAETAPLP
UniProt P41145: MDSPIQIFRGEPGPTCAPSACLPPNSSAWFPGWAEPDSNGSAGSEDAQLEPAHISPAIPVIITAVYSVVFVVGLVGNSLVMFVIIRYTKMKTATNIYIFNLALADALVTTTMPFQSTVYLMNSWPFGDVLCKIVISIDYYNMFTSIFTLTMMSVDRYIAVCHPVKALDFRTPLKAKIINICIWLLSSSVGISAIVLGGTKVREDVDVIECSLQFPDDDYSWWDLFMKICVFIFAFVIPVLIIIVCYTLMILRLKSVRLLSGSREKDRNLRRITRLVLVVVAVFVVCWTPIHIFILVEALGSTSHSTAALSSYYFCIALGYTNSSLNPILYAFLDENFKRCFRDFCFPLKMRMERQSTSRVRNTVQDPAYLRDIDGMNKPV
UniProt P41143, whole entry: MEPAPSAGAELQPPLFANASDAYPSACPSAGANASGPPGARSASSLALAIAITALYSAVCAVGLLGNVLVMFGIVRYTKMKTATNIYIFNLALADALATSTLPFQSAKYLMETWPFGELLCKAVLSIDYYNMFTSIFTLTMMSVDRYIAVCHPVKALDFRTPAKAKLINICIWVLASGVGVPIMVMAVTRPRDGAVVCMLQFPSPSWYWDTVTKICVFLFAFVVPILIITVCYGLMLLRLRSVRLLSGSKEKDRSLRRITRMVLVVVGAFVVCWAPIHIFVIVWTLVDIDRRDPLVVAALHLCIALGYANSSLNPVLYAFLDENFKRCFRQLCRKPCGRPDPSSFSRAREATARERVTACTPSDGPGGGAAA

The target of one assay is Mu-type opioid receptor (Homo sapiens, UniProt P35372). To be noted: CHO.
Assay [1] is filed under the species Homo sapiens. In words: Selectivity ratio of Ki for human recombinant kappa opioid receptor to Ki for human recombinant mu opioid receptor.
The species named for assay [2] is Homo sapiens. Description: Selectivity ratio of Ki for human recombinant mu opioid receptor to Ki for human recombinant delta opioid receptor.
The target in assay [3] is Kappa-type opioid receptor (Homo sapiens, UniProt P41145). Particulars: CHO.
In assay [4] the target is T1, Delta-type opioid receptor (Homo sapiens, UniProt P41143). Description: Antagonist activity at human recombinant delta opioid receptor expressed in mouse/rat NG108-15 cell membranes assessed as inhibition of SNC80-induced [35S]GTPgammaS binding by liquid scintillation counting analysis. Type of assay: functional. On the technique in general: Binding of GTPγS marks nucleotide exchange on a G protein.

The species named for assay [5] is Homo sapiens. In words: Selectivity ratio of Ki for human recombinant kappa opioid receptor to Ki for human recombinant delta opioid receptor.
Assay [6] deals with T1, Delta-type opioid receptor. Description: Partial agonist activity at human recombinant delta opioid receptor expressed in mouse/rat NG108-15 cell membranes assessed as stimulation of [35S]GTPgammaS binding after 3 hrs by liquid scintillation counting analysis. Type of assay: functional. In a few lines: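 DOR function measured in NG108-15 neuroblastoma-glioma membranes. Incubated with drug, GDP and 50 pM final [35S]GTPγS in 50 mM Tris-HCl pH 7.4, 100 mM NaCl, 10 mM MgCl2, 1 mM EDTA, 1 mM DTT, 0.1% BSA, 3 h at 25 °C. Unlabelled GTPγS defined nonspecific binding. Bound label collected on GF/B filters and scintillation counted; ED50 and Emax reported.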

The source made the active and inactive calls. The calls are words filed in the database; no cut-off is given here.

Consider `Oc1ccc2c(c1)[C@]1(CCc3ccccc3)CCN(CC3CC3)C[C@@H]1O2` (relative stereo), for which, on Mu-type opioid receptor, the ED50 entry is “inactive”. The Ratio Ki amounted to 3 in the assay listed under Homo sapiens [1], 0.2 in the assay filed under Homo sapiens [2] and 0.7 in the assay filed under Homo sapiens [5]. In assay [3], this compound had an ED50 of 0.135 µM. The Ke in assay [4] was 64 nM.
`Oc1ccc2c(c1)[C@]1(CCc3ccccc3)CCN(CCc3ccc(C(F)(F)F)cc3)C[C@@H]1O2` (relative stereo): the figures for the ED50 (on Mu-type opioid receptor; in assay [6]) were 2.15 µM and 1.25 µM, respectively.
On the same counts, the results for `Oc1ccc2c(c1)[C@]1(CCc3ccccc3)CCN(CCc3ccc(F)cc3)C[C@@H]1O2` (relative stereo) are 1.19 µM and 0.35 µM.
Turning to `Oc1ccc2c(c1)[C@]1(CCc3ccccc3)CCN(CCc3cccc(C(F)(F)F)c3)C[C@@H]1O2` (relative stereo), on Mu-type opioid receptor, the ED50 entry is “inactive”.
As to `Oc1ccc2c(c1)[C@]1(CCc3ccccc3)CCN(CCc3ccccc3)C[C@@H]1O2` (relative stereo), the ED50 at Mu-type opioid receptor was determined as 0.567 µM; in assay [6] it was 0.395 µM.
On Mu-type opioid receptor, `Oc1ccc2c(c1)[C@]1(CCc3ccccc3)CCN(CCc3ccccc3F)C[C@@H]1O2` (relative stereo) displayed an ED50 of 0.248 µM.
